Test results taken from ChEMBL document CHEMBL1157158, “Synthesis and neuropharmacological evaluation of 2-aryl- and alkylapomorphines” (Bioorg Med Chem, 2008).

Protein sequences, listed by entry. Tags and fused reporters are not part of them.
UniProt P61169, whole entry: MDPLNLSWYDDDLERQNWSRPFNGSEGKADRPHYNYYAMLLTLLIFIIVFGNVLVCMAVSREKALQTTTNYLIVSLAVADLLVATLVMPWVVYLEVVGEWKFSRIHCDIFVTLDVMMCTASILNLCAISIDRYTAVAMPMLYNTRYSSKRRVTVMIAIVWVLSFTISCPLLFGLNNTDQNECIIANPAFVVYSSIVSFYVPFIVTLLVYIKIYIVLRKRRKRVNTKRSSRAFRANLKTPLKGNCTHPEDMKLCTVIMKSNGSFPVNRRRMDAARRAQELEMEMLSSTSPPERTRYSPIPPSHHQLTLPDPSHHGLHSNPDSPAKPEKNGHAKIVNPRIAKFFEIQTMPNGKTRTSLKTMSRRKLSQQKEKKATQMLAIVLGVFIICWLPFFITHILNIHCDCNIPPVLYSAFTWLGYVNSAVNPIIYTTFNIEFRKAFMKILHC

Target: D(2) dopamine receptor (Rattus norvegicus, UniProt P61169)
Test: Displacement of [3H]spiperone from rat dopamine D2 receptor in brain striatal membrane
Assay type: cell membranes

SMILES: CN1CCc2cccc3c2[C@H]1Cc1ccc(O)c(O)c1-3.CN1CCc2cccc3c2[C@H]1Cc1ccc(O)c(O)c1-3.Cl.Cl.O [APOMORPHINE HYDROCHLORIDE]
- pIC50: 7.06
- pKi: 7.32

pIC50, pKi: −log10 of the molar value.
